Experimental findings from PubChem BioAssay AID2587 (National Center for Advancing Translational Sciences (NCATS), 2010) are described below.

Chains of the proteins cited; added tags and fusions are not shown. Lines headed by an entry give the natural chain unless they say otherwise; changes in a name come on top.
UniProt P04062: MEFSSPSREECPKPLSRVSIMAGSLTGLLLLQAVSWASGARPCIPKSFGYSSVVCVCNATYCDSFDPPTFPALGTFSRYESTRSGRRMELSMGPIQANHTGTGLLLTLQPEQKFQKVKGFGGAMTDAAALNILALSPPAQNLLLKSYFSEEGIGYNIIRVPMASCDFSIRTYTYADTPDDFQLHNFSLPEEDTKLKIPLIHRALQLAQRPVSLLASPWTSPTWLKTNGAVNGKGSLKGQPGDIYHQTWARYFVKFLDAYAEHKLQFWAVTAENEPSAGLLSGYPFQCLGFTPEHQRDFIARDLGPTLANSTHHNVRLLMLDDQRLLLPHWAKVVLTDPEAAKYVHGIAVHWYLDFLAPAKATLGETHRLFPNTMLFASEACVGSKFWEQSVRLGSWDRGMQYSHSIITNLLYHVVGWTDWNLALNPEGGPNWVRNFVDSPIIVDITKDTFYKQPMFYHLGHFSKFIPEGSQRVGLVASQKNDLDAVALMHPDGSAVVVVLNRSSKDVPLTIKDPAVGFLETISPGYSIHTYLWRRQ

This is a selection; strong and weak results do not stand in their true shares. Calls of active or inactive are those of the source. The call rests on the fitted dose curve; in most records, active means well fitted curve in the direction sought with a large enough effect; inactive means no such curve, though single readings can be large or run the other way.

The target in the assay is Lysosomal acid glucosylceramidase (Homo sapiens) (UniProt P04062). The assay is described as follows: qHTS Assay for Inhibitors and Activators of N370S glucocerebrosidase as a Potential Chaperone Treatment of Gaucher Disease: Chaperone Activity in Gauche Fibroblasts After Multi-day Incubation with Compound. To be noted: GC immunofluorescence, 5 days. The text has this:
NIH Chemical Genomics Center [NCGC] NIH Molecular Libraries Probe Production Centers Network [MLPCN] MLPCN Grant: MH086442-01 Assay Submitter (PI): Wei Zheng Glucocerebrosidase (GC) catalyzes the hydrolysis of beta-glucocerebroside to glucose and ceramide in lysosomes. Mutations in the glucocerebrosidase gene result in Gaucher disease, an autosomal recessive lysosomal storage disorder. Many of the mutations encountered in patients with Gaucher disease are missense alterations that may cause misfolding, decreased stability and/or mistrafficking of this lysosomal protein. […] These inhibitors include iminosugar analogs and three non-iminosugar inhibitors identified from a previous HTS of 62,000 compounds with the wild type recombinant enzyme. However, the enhancement of enzyme activity by the chaperone action of an enzyme inhibitor must be balanced against the direct inhibition of the enzyme. An enzyme activator could also function as a chaperone by binding to the enzyme and helping to correct its misfolding and mistrafficking. […] This assay attempts to quantitate translocated glucocerebrosidase protein in patient-derived fibroblasts following extended compound incubation. […]
NCGC Assay Protocol Summary: 1. […] Visualized using a fluorescence microscope and the intensity of fluorescence in the selected areas were calculated. […]
For orientation: In qHTS, concentration-response curves come from the screen itself.
With `Cc1cc(N2CCOCC2)nc2ccc(NC(=O)C3CCCCC3)cc12`, the Potency was active: 28.2 µM.
